Like-named read-outs stand apart in the source and are kept apart here.
Experiments:
[1] = biological target: T1, NAD(P)H:quinone oxidoreductase (NQO1) (Rattus norvegicus, UniProt P05982); experiment: Steady-state kinetics of reduction by NAD(P)H:quinone oxidoreductase (NADPH oxidation); details: for kcat, catalytic constant of reduction by NQO1: pH 7.0, 25 °C, NADPH 150 µM; for kcat of NQO1-catalyzed reduction (Table 5): BFXs
[2] = experimental; ref [16],[24]; cited from earlier work
[3] = biological target: T1, NAD(P)H:quinone oxidoreductase (NQO1); details: read-out: Ki, inhibition constant of NQO1; NACs; ref [20]; cited from earlier work
[4] = biological target: T1, NAD(P)H:quinone oxidoreductase (NQO1); experiment: LC-MS identification of NQO1-catalyzed reduction product
[5] = biological target: T2, NADPH:cytochrome P-450 reductase (P-450R) (Rattus norvegicus, UniProt P00388); experiment: LC-MS identification of P-450R-catalyzed reduction product
[6] = biological target: T1, NAD(P)H:quinone oxidoreductase (NQO1); experiment: Inhibition of NQO1 quinone reductase reaction (menadione-mediated reduction of cytochrome c); details: BFXs, 4 µM menadione, 50 µM cytochrome c; for Ki: read-out: Ki, inhibition constant of NQO1, competitive with respect to NADPH
[7] = biological target: T1, NAD(P)H:quinone oxidoreductase (NQO1); experiment: Temperature dependence of NQO1-catalyzed reduction (Eyring plots, activation parameters); details: BFXs, seven temperatures 15-45 °C
[8] = biological target: T1, NAD(P)H:quinone oxidoreductase (NQO1); experiment: Redox-cycling test: O2 uptake, cytochrome c reduction and oxidation of excess NADPH during NQO1-catalyzed reduction; details: for O2 uptake accompanying reduction by NQO1: compared with NADPH oxidation rate and intrinsic NADPH-oxidase activity of NQO1 (0.05 ± 0.02 s^−1)
[9] = tested on: NQO1 (oxidized enzyme form); details: read-out: Kd of complex between oxidized NQO1 and NADPH; assumed from transient kinetics; ref [36]; cited from earlier work
[10] = biological target: T1, NAD(P)H:quinone oxidoreductase (NQO1); details: cited from earlier work
[11] = biological target: T1, NAD(P)H:quinone oxidoreductase (NQO1); details: cited from earlier work; remark: listed apart in the source
[12] = biological target: T2, NADPH:cytochrome P-450 reductase (P-450R); experiment: Redox-cycling test: O2 uptake during P-450R-catalyzed reduction; details: compared with NADPH oxidation rate and intrinsic NADPH-oxidase activity (0.11 ± 0.02 s^−1)

Chains of the proteins cited; added tags and fusions are not shown. Lines headed by an entry give the natural chain unless they say otherwise; changes in a name come on top. Residues count along the entry.
UniProt P05982, 2-274 limits assumed: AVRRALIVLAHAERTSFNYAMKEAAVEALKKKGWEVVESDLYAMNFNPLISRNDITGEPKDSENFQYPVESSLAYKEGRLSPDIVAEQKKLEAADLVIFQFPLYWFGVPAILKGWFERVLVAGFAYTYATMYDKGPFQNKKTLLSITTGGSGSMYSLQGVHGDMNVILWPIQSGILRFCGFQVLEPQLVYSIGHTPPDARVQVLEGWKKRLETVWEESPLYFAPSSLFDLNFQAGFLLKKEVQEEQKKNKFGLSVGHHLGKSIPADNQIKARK
UniProt P00388: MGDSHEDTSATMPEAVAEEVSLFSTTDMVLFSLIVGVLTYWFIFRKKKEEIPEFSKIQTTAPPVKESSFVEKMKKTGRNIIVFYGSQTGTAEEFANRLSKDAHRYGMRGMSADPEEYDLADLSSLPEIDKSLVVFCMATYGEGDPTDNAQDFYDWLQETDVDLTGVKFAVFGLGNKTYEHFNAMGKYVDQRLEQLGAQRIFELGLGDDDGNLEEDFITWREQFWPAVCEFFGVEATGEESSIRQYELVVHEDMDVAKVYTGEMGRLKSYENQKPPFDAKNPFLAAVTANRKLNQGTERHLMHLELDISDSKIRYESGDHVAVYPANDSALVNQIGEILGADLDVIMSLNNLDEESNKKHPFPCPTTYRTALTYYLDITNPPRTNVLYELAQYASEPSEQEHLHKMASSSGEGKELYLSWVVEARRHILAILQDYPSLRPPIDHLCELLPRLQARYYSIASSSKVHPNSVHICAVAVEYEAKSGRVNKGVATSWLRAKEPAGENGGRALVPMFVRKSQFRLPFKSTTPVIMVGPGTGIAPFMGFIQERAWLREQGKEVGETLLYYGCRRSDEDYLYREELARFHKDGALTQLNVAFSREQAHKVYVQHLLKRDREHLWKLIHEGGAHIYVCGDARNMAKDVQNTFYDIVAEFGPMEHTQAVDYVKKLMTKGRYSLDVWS

## O=c1oc2ccccc2c(O)c1Cc1c(O)c2ccccc2oc1=O
[1]; 1 μM inhibitor
  effect on NQO1-catalyzed reduction of BFXs: inhibited

## O=[N+]([O-])c1ccccc1
[1]
  kcat, catalytic constant of reduction by NQO1: <0.1 s⁻¹
[2]
  E^1_7, single-electron reduction potential: −0.485 V
[3]
  Ki: 900 µM

## [O-][n+]1onc2ccccc21
[1]
  kcat of NQO1-catalyzed reduction (Table 5): 11.0 ± 1.5 s⁻¹
  kcat, catalytic constant of reduction by NQO1: 11.0 ± 1.5 s⁻¹
[4]
  reduction product identified by LC-MS: 2,3-diaminophenazine (PHADA)
[5]
  reduction product identified by LC-MS: 2,3-diaminophenazine
[6]
  Ki: 20.3 µM
[7]
  ∆H^≠, activation enthalpy of NQO1-catalyzed reduction: 7.278 ± 1.54 kcal/mol
  ∆S^≠, activation entropy of NQO1-catalyzed reduction: −42.52 ± 8.30 eu

## [O-][n+]1onc2c1ccc1no[n+]([O-])c12
[8]
  O2 uptake accompanying reduction by NQO1: exhaustion of excess amount of O2 was observed
[1]
  kcat, catalytic constant of reduction by NQO1: 2.3 ± 0.4 s⁻¹
[6]
  εmax, maximal degree of inhibition of NQO1: 100%
  Ki: 41.5 µM

## [O-][n+]1onc2cc(C(F)(F)F)ccc21
[1]
  kcat, catalytic constant of reduction by NQO1: 7.6 ± 0.9 s⁻¹
[6]
  Ki: 49 µM

## COc1ccc2c(c1)no[n+]2[O-]
[1]
  kcat, catalytic constant of reduction by NQO1: 4.4 ± 0.1 s⁻¹
[6]
  Ki: 32.9 µM

## Cc1cc2no[n+]([O-])c2cc1C
[1]
  kcat, catalytic constant of reduction by NQO1: 1.8 ± 0.2 s⁻¹
[6]
  Ki: 29.3 µM

## COc1cc2no[n+]([O-])c2cc1OC
[1]
  kcat, catalytic constant of reduction by NQO1: 1.1 ± 0.1 s⁻¹
[6]
  Ki: 55.3 µM

## NADPH
[1]; read-out: apparent Km(NADPH), predicted as kcat/(kcat/Km(NADPH)) for more reactive BFXs
  Km: < 1 µM
[9]
  Kd: > 500 µM

## CC1=C(C)C(=O)C(C)=C(C)C1=O
[10]; quinones, ref [37]
  kcat of NQO1-catalyzed reduction (Table 5): 1000 ± 90 s⁻¹
[11]; quinones, ref [37]
  ∆H^≠, activation enthalpy of NQO1-catalyzed reduction: 1.06 ± 0.251 kcal/mol
  ∆S^≠, activation entropy of NQO1-catalyzed reduction: −76.09 ± 3.44 eu

## [O-][n+]1onc2cc3c(cc21)OCO3
[1]
  kcat, catalytic constant of reduction by NQO1: 1.2 ± 0.4 s⁻¹
[6]
  Ki: 110 µM

## Cc1ccc2c(c1)no[n+]2[O-]
[1]
  kcat, catalytic constant of reduction by NQO1: 2.4 ± 0.4 s⁻¹
[6]
  Ki: 25.7 µM

## [O-][n+]1onc2cc(Cl)c(Cl)cc21
[1]
  kcat of NQO1-catalyzed reduction (Table 5): 6.9 ± 0.1 s⁻¹
  kcat, catalytic constant of reduction by NQO1: 6.9 ± 0.1 s⁻¹
[6]
  Ki: 22.1 µM
[7]
  ∆H^≠, activation enthalpy of NQO1-catalyzed reduction: 7.378 ± 0.406 kcal/mol
  ∆S^≠, activation entropy of NQO1-catalyzed reduction: −46.06 ± 5.72 eu

## [O-][n+]1onc2cc3c(cc21)OCCO3
[1]
  kcat, catalytic constant of reduction by NQO1: 0.7 ± 0.1 s⁻¹
[6]
  Ki: 112 µM

## 2-Hydroxy-1,4-nathphoquinone
[10]; quinones, ref [37]
  kcat of NQO1-catalyzed reduction (Table 5): 232 ± 25 s⁻¹
[11]; quinones, ref [37]
  ∆H^≠, activation enthalpy of NQO1-catalyzed reduction: 2.414 ± 0.801 kcal/mol
  ∆S^≠, activation entropy of NQO1-catalyzed reduction: −84.43 ± 8.30 eu

## [O-][n+]1onc2cc(Cl)ccc21
[8]; NQO1, 500 µM NADPH, 50 µM compound, monitored at 305 nm
  equivalents of NADPH oxidized in the first (fast) phase: approximately three equivalents of NADPH were oxidized in the first (fast) phase
[8]
  O2 uptake accompanying reduction by NQO1: slow O2 uptake
[1]
  kcat, catalytic constant of reduction by NQO1: 5.6 ± 0.6 s⁻¹
[6]
  Ki: 33.8 µM

## O=[N+]([O-])c1ccccc1[N+](=O)[O-]
[1]
  kcat, catalytic constant of reduction by NQO1: <0.1 s⁻¹
[2]
  E^1_7, single-electron reduction potential: −0.287 V

## O/N=C1\C=CC=C\C1=N/O
[8]; NQO1, cytochrome c 50 μM
  rate of reduction of cytochrome c as share of NADPH oxidation rate: 30%–35%
[8]
  O2 uptake accompanying reduction by NQO1: slow O2 uptake
[8]; control without enzyme
  direct reduction of cytochrome c in the absence of NQO1: did not occur
[12]
  O2 uptake accompanying reduction by P-450R: slow O2 uptake
[4]
  reduction product identified by LC-MS: formation of PHADA
[5]
  reduction product identified by LC-MS: formation of PHADA

## O=[N+]([O-])c1ccc([N+](=O)[O-])cc1
[1]
  kcat, catalytic constant of reduction by NQO1: 0.6 ± 0.1 s⁻¹
[10]; nitroaromatic, ref [23]
  kcat of NQO1-catalyzed reduction (Table 5): 0.6 ± 0.1 s⁻¹
[11]; nitroaromatic, ref [23]
  ∆H^≠, activation enthalpy of NQO1-catalyzed reduction: 12.09 ± 2.464 kcal/mol
  ∆S^≠, activation entropy of NQO1-catalyzed reduction: −8.81 ± 2.25 eu
[2]
  E^1_7, single-electron reduction potential: −0.257 V
[3]
  Ki: 200 µM

Reference: PMC4284768, “The Study of NADPH-Dependent Flavoenzyme-Catalyzed Reduction of Benzo[1,2-c]1,2,5-oxadiazole N-Oxides (Benzofuroxans)” (2014)
